Measurements taken from patent EP4847505A1, “4-METHYLSULFONYL-SUBSTITUTED PIPERIDINE UREA COMPOUNDS” (dated 2026).

By UniProt entry, the sequences of proteins in these tests, tags left out.
UniProt Q9BE39, whole entry: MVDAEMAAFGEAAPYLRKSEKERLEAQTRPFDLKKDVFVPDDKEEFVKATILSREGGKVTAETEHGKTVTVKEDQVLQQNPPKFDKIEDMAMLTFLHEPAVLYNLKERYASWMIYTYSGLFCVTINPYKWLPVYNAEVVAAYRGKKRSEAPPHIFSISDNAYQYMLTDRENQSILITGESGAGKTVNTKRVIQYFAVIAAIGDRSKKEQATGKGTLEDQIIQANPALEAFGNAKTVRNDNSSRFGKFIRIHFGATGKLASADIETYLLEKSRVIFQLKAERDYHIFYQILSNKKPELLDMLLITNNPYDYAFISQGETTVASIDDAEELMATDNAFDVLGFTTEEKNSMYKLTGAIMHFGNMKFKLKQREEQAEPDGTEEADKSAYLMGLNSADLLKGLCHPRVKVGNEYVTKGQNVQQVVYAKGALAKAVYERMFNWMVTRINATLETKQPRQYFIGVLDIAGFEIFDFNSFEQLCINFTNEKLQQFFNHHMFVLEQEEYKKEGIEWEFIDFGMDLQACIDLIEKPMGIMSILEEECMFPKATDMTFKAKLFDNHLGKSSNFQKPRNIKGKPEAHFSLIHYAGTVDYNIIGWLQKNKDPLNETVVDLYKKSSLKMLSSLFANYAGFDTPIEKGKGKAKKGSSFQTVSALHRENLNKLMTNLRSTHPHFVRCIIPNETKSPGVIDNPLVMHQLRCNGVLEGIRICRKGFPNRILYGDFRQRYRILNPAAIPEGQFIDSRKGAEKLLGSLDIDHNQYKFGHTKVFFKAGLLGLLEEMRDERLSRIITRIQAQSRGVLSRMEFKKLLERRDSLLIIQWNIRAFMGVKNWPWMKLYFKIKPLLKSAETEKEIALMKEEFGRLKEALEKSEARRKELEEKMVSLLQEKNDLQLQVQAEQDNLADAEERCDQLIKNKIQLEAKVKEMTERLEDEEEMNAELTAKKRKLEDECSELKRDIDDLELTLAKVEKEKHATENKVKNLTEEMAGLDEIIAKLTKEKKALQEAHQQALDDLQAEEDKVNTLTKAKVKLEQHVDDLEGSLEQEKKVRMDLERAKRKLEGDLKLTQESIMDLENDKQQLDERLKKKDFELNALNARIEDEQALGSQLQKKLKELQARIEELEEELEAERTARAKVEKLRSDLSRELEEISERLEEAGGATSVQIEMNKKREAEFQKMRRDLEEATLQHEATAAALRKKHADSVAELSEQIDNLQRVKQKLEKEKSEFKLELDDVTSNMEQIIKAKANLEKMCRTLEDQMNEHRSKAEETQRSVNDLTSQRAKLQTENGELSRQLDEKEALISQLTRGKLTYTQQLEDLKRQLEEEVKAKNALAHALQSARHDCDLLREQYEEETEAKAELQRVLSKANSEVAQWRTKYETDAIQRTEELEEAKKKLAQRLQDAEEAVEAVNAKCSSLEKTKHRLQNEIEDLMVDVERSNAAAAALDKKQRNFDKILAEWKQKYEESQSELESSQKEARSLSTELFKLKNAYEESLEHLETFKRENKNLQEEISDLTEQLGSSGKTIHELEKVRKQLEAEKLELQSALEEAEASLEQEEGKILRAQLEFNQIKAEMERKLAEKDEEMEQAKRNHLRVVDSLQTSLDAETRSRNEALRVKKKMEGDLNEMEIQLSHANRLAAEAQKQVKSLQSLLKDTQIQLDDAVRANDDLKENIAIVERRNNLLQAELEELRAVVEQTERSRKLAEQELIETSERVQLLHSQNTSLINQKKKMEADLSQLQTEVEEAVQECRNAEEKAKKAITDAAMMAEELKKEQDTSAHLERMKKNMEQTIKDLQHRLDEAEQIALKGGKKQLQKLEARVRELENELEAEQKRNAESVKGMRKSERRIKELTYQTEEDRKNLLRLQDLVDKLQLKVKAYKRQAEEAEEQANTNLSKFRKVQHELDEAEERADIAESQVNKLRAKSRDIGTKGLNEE
UniProt Q3SZE5, whole entry partner: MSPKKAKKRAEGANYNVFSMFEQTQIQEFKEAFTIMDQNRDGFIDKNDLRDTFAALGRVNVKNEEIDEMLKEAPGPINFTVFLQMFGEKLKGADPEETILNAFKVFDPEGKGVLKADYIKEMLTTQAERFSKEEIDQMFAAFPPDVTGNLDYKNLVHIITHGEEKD
UniProt P85100, whole entry partner: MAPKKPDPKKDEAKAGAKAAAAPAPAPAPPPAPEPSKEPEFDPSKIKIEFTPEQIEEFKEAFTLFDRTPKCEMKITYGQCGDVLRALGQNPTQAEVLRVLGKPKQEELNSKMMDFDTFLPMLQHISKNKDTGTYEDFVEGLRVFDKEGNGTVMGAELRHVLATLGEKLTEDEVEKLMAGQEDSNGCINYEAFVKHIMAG

Each compound was assayed against bovine cardiac myosin (Bos taurus, UniProt Q9BE39) (assay: Myosin activation assay (PK/LDH-coupled ATPase, bovine cardiac myofibrils)). Conditions: concentration at which the total response is increased by twenty percent.
Method: Small molecule agents were assessed for their ability to activate the enzymatic activity of bovine cardiac myosin using a biochemical assay that couples the release of ADP (adenosine diphosphate) from cardiac myosin to an enzymatic coupling system consisting of pyruvate kinase and lactate dehydrogenase (PK/LDH) and monitoring the absorbance decrease of NADH (at 340 nm) as a function of time. PK converts ADP to ATP (adenosine triphosphate) by converting PEP (phosphoenolpyruvate) to pyruvate. Pyruvate is then converted to lactate by LDH by converting NADH (nicotinamide adenine dinucleotide) to NAD (oxidized nicotinamide adenine dinucleotide). The source of cardiac myosin was from bovine heart in the form of skinned myofibrils. Prior to testing small molecule agents, the bovine myofibrils were assessed for their calcium responsiveness and the calcium concentration that achieves either a 50% (pCa50 or pCa = ~ 6) or < 5% (pCa = 10) activation of the myofibril system was chosen as the final condition for assessing the activation activity of the small molecule agents. All enzymatic activity was measured in a buffered solution containing 12 mM PIPES (piperazine-N,N'-bis(2-ethanesulfonic acid), 2 mM magnesium chloride at pH 6.8 (PM12 buffer). Final assay conditions were 1 mg/mL of bovine cardiac myofibrils, 0.4 mM PK/LDH, 50 uM ATP, 0.1 mg/mL BSA (bovine serum albumin), 10 ppm antifoam, 2 mM BME, 0.5 mM NADH, 1.5 mM PEP at the desired free calcium concentration required to achieve either 50% or < 5% activation of the myofibrils.
A dilution series of compound was created in DMSO such that the final desired concentration of compound would be achieved in a volume of 100 µL with a fixed DMSO concentration of 3.3% (v/v). Typically a 1 µL of the dilution series was added to a 384 well plate to achieve a 10 point dose response. Following the addition of 14 µL of a solution containing bovine cardiac myofibrils, PK/LDH and a solution of calcium (that achieved the desired activation), the enzymatic reaction was started with the addition of 15 µL of a solution containing ATP, PEP and NADH. The reaction progress was followed in a PerkinElmer Envision plate reader at ambient temperature using clear bottom plates. The plate reader was configured to read absorbance at 340 nm in kinetics mode for 15 minutes. Data were recorded as the slope of the absorbance response to time. The slopes of the absorbance response as a function of time were normalized to slopes on the plate containing DMSO. This normalized rate was then plotted as a function of small molecule concentration and the data was fitted to a four-parameter fit using EXCEL XLfit. The concentration at which the total response is increased by twenty or fifty percent is reported as AC20 or AC50. […] Table 2. Myosin Activation of Selected Compoundsa

Compound	Myosin Activation (AC20)
N#Cc1ccc(S(=O)(=O)C2(C3CCN(C(=O)Nc4ccnnc4)CC3)CCC2)cc1	+++ (+++ represents myosin activation value AC20 < 2 µM)
Cc1cc(C(F)(F)F)ccc1S(=O)(=O)C(F)(F)C1CCN(C(=O)Nc2ccnnc2)CC1	++ (++ represents myosin activation value AC20 from 2 µM - 5 µM)
Cn1cc(S(=O)(=O)[C@@](C)(F)C2CCN(C(=O)Nc3ccc(C#N)nc3)CC2)c(C(F)F)n1	+++ (+++ represents myosin activation value AC20 < 2 µM)
CC(C)(C1CCN(C(=O)Nc2ccnnc2)CC1)S(=O)(=O)c1cc(F)cc(F)c1	+++ (+++ represents myosin activation value AC20 < 2 µM)
Cn1cc(S(=O)(=O)C(C)(F)C2CCN(C(=O)Nc3ccnnc3)CC2)c(C(F)F)n1 (stereo not drawn)	+++ (+++ represents myosin activation value AC20 < 2 µM)
C[C@H](O)c1cc(NC(=O)N2CCC([C@@](C)(F)S(=O)(=O)c3cn(C)nc3C(F)F)CC2)ccn1	+ (+ represents myosin activation value AC20 > 5 µM)
CC(F)(C1CCN(C(=O)Nc2ccc(F)nc2)CC1)S(=O)(=O)c1ccc(C(F)(F)F)cc1 (stereo not drawn)	++ (++ represents myosin activation value AC20 from 2 µM - 5 µM)
Cn1cc(S(=O)(=O)C(C)(C)C2CCN(C(=O)Nc3ccon3)CC2)c(C(F)F)n1	++ (++ represents myosin activation value AC20 from 2 µM - 5 µM)
C[C@H](O)c1cc(NC(=O)N2CCC(C(F)(F)S(=O)(=O)c3cccc(F)c3)CC2)ccn1	+ (+ represents myosin activation value AC20 > 5 µM)
CC(C)(C1CCN(C(=O)Nc2ccns2)CC1)S(=O)(=O)c1cccc(F)c1	++ (++ represents myosin activation value AC20 from 2 µM - 5 µM)
Cc1ccc(NC(=O)N2CCC([C@@](C)(F)S(=O)(=O)c3cn(C)nc3C(F)F)CC2)cn1	+ (+ represents myosin activation value AC20 > 5 µM)
O=C(Nc1ccnnc1)N1CCC(C(F)(F)S(=O)(=O)c2ccc(OC(F)(F)F)cc2)CC1	++ (++ represents myosin activation value AC20 from 2 µM - 5 µM)
C[C@](F)(C1CCN(C(=O)Nc2ccc(C#N)nc2)CC1)S(=O)(=O)c1cccc(F)c1	++ (++ represents myosin activation value AC20 from 2 µM - 5 µM)
CC(C)(C1CCN(C(=O)Nc2nnco2)CC1)S(=O)(=O)c1cccc(F)c1	+ (+ represents myosin activation value AC20 > 5 µM)
CC(F)(C1CCN(C(=O)Nc2ccnnc2)CC1)S(=O)(=O)c1ccccc1C(F)(F)F (stereo not drawn)	++ (++ represents myosin activation value AC20 from 2 µM - 5 µM)
CC(C)(C1(F)CCN(C(=O)Nc2ccnnc2)CC1)S(=O)(=O)c1cccc(F)c1	++ (++ represents myosin activation value AC20 from 2 µM - 5 µM)
C[C@@](F)(C1CCN(C(=O)Nc2ccon2)CC1)S(=O)(=O)c1ccc(OC(F)F)nc1	+ (+ represents myosin activation value AC20 > 5 µM)
Cn1nc(C(F)F)cc1S(=O)(=O)C(C)(C)C1CCN(C(=O)Nc2ccnnc2)CC1	+++ (+++ represents myosin activation value AC20 < 2 µM)
O=C(Nc1cnns1)N1CCC(C(F)(F)S(=O)(=O)c2cccc(F)c2)CC1	+ (+ represents myosin activation value AC20 > 5 µM)
C[C@](F)(C1CCN(C(=O)Nc2ccon2)CC1)S(=O)(=O)c1cccc(F)c1	+++ (+++ represents myosin activation value AC20 < 2 µM)
O=C(Nc1ccnnc1)N1CCC(C(F)(F)S(=O)(=O)c2ccccc2-n2cncn2)CC1	++ (++ represents myosin activation value AC20 from 2 µM - 5 µM)
O=C(Nc1ccnnc1)N1CCC(C2(S(=O)(=O)c3ccc(C(F)(F)F)cc3)CCC2)CC1	+++ (+++ represents myosin activation value AC20 < 2 µM)
CC(C)(C1CCN(C(=O)Nc2ccc(F)nc2)CC1)S(=O)(=O)c1ccc(C(F)(F)F)nc1	+ (+ represents myosin activation value AC20 > 5 µM)
CC(C)(C1CCN(C(=O)Nc2cnns2)CC1)S(=O)(=O)c1cccc(F)c1	+++ (+++ represents myosin activation value AC20 < 2 µM)
Cn1cc(NC(=O)N2CCC(C(C)(C)S(=O)(=O)c3cccc(F)c3)CC2)cn1	+ (+ represents myosin activation value AC20 > 5 µM)
Cc1ccc(NC(=O)N2CCC(C(C)(C)S(=O)(=O)c3cn(C)nc3C(F)F)CC2)cn1	++ (++ represents myosin activation value AC20 from 2 µM - 5 µM)

Compound	Myosin Activation (AC20)
CC(F)(C1CCN(C(=O)Nc2ccnc(F)c2)CC1)S(=O)(=O)c1ccc(C(F)(F)F)cc1 (stereo not drawn)	++ (++ represents myosin activation value AC20 from 2 µM - 5 µM)
CC(F)(C1CCN(C(=O)Nc2ccc(F)nc2)CC1)S(=O)(=O)c1ccc(C#N)cc1 (stereo not drawn)	++ (++ represents myosin activation value AC20 from 2 µM - 5 µM)
CCn1nccc1S(=O)(=O)C(C)(C)C1CCN(C(=O)Nc2cnns2)CC1	++ (++ represents myosin activation value AC20 from 2 µM - 5 µM)
COc1ccc(NC(=O)N2CCC(C(C)(C)S(=O)(=O)c3cccc(F)c3)CC2)cn1	+ (+ represents myosin activation value AC20 > 5 µM)
CC(F)(C1CCN(C(=O)Nc2ccon2)CC1)S(=O)(=O)c1cccc(C#N)c1 (stereo not drawn)	++ (++ represents myosin activation value AC20 from 2 µM - 5 µM)
Cc1ccc(NC(=O)N2CCC(C(C)(F)S(=O)(=O)c3ccnn3C)CC2)cn1 (stereo not drawn)	++ (++ represents myosin activation value AC20 from 2 µM - 5 µM)
Cn1cc(S(=O)(=O)[C@](C)(F)C2CCN(C(=O)Nc3ccnc(F)c3)CC2)c(C(F)F)n1	+ (+ represents myosin activation value AC20 > 5 µM)
COc1ncccc1S(=O)(=O)C(C)(C)C1CCN(C(=O)Nc2ccnnc2)CC1	++ (++ represents myosin activation value AC20 from 2 µM - 5 µM)
CC(C)(C1CCN(C(=O)Nc2ccnnc2)CC1)S(=O)(=O)c1ccn2nccc2c1	+++ (+++ represents myosin activation value AC20 < 2 µM)
CC(F)(C1CCN(C(=O)Nc2cnns2)CC1)S(=O)(=O)c1cccc(F)c1 (stereo not drawn)	+++ (+++ represents myosin activation value AC20 < 2 µM)
Cn1cc(S(=O)(=O)C(F)(F)C2CCN(C(=O)Nc3ccc(F)nc3)CC2)c(C(F)F)n1	+ (+ represents myosin activation value AC20 > 5 µM)
CC(F)(C1CCN(C(=O)Nc2ccon2)CC1)S(=O)(=O)c1ccc(C#N)cc1 (stereo not drawn)	++ (++ represents myosin activation value AC20 from 2 µM - 5 µM)
Cn1cc(S(=O)(=O)C(C)(C)C2CCN(C(=O)Nc3ccncc3)CC2)cn1	+ (+ represents myosin activation value AC20 > 5 µM)
CC(C)(C1CCN(C(=O)Nc2ccc(F)nc2)CC1)S(=O)(=O)c1ccc(C#N)cc1	+ (+ represents myosin activation value AC20 > 5 µM)
Cn1cc(S(=O)(=O)C(C)(F)C2CCN(C(=O)Nc3ccon3)CC2)c(C(F)(F)F)n1 (stereo not drawn)	++ (++ represents myosin activation value AC20 from 2 µM - 5 µM)
Cn1cc(S(=O)(=O)C(C)(C)C2CCN(C(=O)Nc3cn[nH]c3)CC2)c(C(F)(F)F)n1	++ (++ represents myosin activation value AC20 from 2 µM - 5 µM)
O=C(Nc1ccnnc1)N1CCC(C(F)(F)S(=O)(=O)c2cc(OC(F)(F)F)ccc2Cl)CC1	+++ (+++ represents myosin activation value AC20 < 2 µM)
CC(F)(C1CCN(C(=O)Nc2ccon2)CC1)S(=O)(=O)c1cccc(F)c1 (stereo not drawn)	+++ (+++ represents myosin activation value AC20 < 2 µM)
Cc1ccc(NC(=O)N2CCC(C(C)(F)S(=O)(=O)c3cc(C(F)(F)F)nn3C)CC2)cn1 (stereo not drawn)	++ (++ represents myosin activation value AC20 from 2 µM - 5 µM)
Cc1cc(C#N)ccc1S(=O)(=O)C(F)(F)C1CCN(C(=O)Nc2ccnnc2)CC1	++ (++ represents myosin activation value AC20 from 2 µM - 5 µM)
CC(C)(C1CCN(C(=O)Nc2ccnc(F)c2)CC1)S(=O)(=O)c1cccc(F)c1	++ (++ represents myosin activation value AC20 from 2 µM - 5 µM)
Cc1cc(NC(=O)N2CCC(C(C)(F)S(=O)(=O)c3cccc(F)c3)CC2)cnn1 (stereo not drawn)	+ (+ represents myosin activation value AC20 > 5 µM)
O=C(Nc1ccnnc1)N1CCC(C(F)(F)S(=O)(=O)c2ccc3ccnn3c2)CC1	++ (++ represents myosin activation value AC20 from 2 µM - 5 µM)
Cn1nc(C(F)(F)F)cc1S(=O)(=O)C(C)(C)C1CCN(C(=O)Nc2ccc(F)nc2)CC1	++ (++ represents myosin activation value AC20 from 2 µM - 5 µM)
CC(F)(F)C(C)(C1CCN(C(=O)Nc2ccnnc2)CC1)S(=O)(=O)c1cccc(F)c1 (stereo not drawn)	+++ (+++ represents myosin activation value AC20 < 2 µM)
